The record followed here is ChEMBL document CHEMBL1141902, “Functionalization at position 3 of the phenyl ring of the potent mGluR5 noncompetitive antagonists MPEP” (Bioorg Med Chem Lett, 2005).

By UniProt entry, the sequences of proteins in these tests, tags left out.
UniProt P31424, whole entry: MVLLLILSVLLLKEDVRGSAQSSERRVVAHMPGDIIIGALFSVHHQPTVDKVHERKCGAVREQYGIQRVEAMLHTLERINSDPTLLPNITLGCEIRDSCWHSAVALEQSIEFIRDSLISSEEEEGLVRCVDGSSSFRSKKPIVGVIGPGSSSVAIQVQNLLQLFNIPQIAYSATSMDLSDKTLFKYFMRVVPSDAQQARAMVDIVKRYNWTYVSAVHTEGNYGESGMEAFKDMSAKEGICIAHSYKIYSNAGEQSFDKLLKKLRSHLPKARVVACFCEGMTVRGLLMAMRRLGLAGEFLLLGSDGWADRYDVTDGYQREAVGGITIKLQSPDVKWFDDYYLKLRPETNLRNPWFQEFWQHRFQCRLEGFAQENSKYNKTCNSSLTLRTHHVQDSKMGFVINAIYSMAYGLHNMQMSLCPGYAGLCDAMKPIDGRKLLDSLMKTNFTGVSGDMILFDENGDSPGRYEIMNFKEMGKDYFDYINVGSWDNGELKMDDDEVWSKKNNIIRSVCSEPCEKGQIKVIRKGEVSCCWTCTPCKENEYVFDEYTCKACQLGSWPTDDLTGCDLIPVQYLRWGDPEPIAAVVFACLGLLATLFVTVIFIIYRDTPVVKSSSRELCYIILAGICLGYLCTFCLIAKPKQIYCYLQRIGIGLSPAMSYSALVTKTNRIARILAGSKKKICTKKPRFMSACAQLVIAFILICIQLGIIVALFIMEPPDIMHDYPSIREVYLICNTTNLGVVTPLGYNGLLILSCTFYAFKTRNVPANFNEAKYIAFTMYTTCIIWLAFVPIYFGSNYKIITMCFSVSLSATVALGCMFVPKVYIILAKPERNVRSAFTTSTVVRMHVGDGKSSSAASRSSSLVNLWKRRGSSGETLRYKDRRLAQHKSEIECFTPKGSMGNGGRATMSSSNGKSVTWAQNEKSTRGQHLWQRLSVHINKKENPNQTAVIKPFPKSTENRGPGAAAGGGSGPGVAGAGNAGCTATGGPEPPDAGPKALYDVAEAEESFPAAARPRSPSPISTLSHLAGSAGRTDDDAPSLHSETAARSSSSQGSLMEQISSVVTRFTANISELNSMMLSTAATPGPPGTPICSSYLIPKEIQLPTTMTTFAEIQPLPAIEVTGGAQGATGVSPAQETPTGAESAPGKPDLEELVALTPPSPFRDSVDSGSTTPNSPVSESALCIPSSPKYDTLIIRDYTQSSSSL

In this experiment the target is Metabotropic glutamate receptor 5 (Rattus norvegicus, UniProt P31424). As to the kind of experiment: Concentration required for 50% inhibition of rat metabotropic glutamate receptor 5 was determined using inositol phosphate hydrolysis assay.

Consider `Cc1cccc(C#Cc2ccccc2)n1`, for which inhibition was half-maximal at 36 nM (IC50).
